Source: PubChem BioAssay
SMARCA2 activ: increases SMARCA2 function in MMTV reporter cells | MG213 cells, MMTV-luciferase reporter, dexamethasone, overnight | activation, % at 9.1 µM | actives 1% (n = 370,000); in the data active = activation above about 7.8%;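 also: 0% = vehicle wells and 100% = reference activator wells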
ERp5 inh: inhibitors of human ERp5; inhibition, % at 9.99 µM; AID 651711; actives 0.05% (n = 350,000); ERp5 insulin aggregation, absorbance 650 nm, 90 min; Q15084;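 active = mean replicate inhibition above about 25%, with every replicate also reaching it, limit read from the data, passing the limit was not always enough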
INS-1E GSIS act: primary screen for activators of insulin secretion dependent on glucose, INS-1E cells, GLuc reporter luminescence | INS-1E GLuc reporter insulin secretion, 2-3 h | activation, % at 16.6 µM | actives 0.61% (n = 370,000);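 active = lowest replicate activation of at least 40%, so every replicate reaches that level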;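 also: 0% = median of neutral control wells and 100% = median of IBMX positive control wells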
UUG fidelity: alters start codon recognition fidelity in yeast; AID 602363; activity score, % at 18.7 µM; 350,000 tested, 0.13% active; S. cerevisiae UUG-firefly luciferase reporter, luminescence/redox ratio;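 active means replicate mean at a twofold rise or more, about +100% in these data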;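 further: firefly luciferase made from a UUG start codon reports start codon fidelity; reporter light over untreated wells divided by growth signal over untreated wells; some hits fall short of that in this replicate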
PDI turbidity: PDI (human) enzyme inhibition. P07237. PDI insulin aggregation turbidity, A650, 90 min. inhibition, % at 10 µM. actives 0.052% (n = 350,000). AID 588391;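 active = mean inhibition across replicates of 30% or more, whatever share of single replicates reach that level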
Rev-erbA mod: modulators of human Rev-erb alpha DNA binding. activity, % at 10 µM. AID 1259318. actives 0.79% (n = 370,000). P20393. Rev-erbα–FITC-DNA binding, fluorescence polarization, 90 min;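 active = activity above about 14%, limit read from the data; passing the limit was not always enough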;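 also: 0% = DMSO wells with 35 nM protein and 100% = DMSO wells with 750 nM protein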
NR1D1 mod conf: Rev-erb alpha (human) modulation, hit confirmation; shares compounds with Rev-erbA mod; Rev-erb alpha FITC-DNA binding, fluorescence polarization, 90 min; activation, % at 25 µM; actives 61% (n = 3,000);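 active = activation at or above a set limit, or at least 3 SD above the negative control mean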;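 also: 0% = 35 nM protein with DMSO and 100% = 750 nM protein high control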
RORg DNA counter: affects RORgamma DNA binding in a Rev-erb alpha counter-screen; shares compounds with Rev-erbA mod; purified RORgamma protein-FITC-DNA binding, fluorescence polarization; IC50, µM; actives 8% (n = 910); AID 1259320;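 active = Compounds whose fitted half-maximal concentration for disrupting protein-DNA binding is below 10 micromolar; the record names Rev-erb in its text, so the target is in doubt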
The depositor's hits bear a star; · = not tested or not shown. In the library only some 2.1% were active in any assay of this set; here they are far more common.

SMILES | SMARCA2 activ | ERp5 inh | INS-1E GSIS act | UUG fidelity | PDI turbidity | Rev-erbA mod | NR1D1 mod conf | others
COc1ccc(-c2ccc(C#N)c(SCC(=O)Nc3sc4c(c3C#N)CCC4)n2)cc1 | -1.1 | · | -2.2 | -9.7 | 1.8 | 33.9* | 13.9
Cc1ccccc1NC(=O)CSc1nc2c(c(-c3ccco3)c1C#N)CCCC2 | · | -2.1 | · | · | 2.2 | 15.1 | ·
CCN(CC)c1ccc(/C=C(/C#N)c2nc3ccccc3[nH]2)c(OC(C)C)c1 | 0.2 | · | · | -23.0 | -0.8 | 39.1* | 46.0* | RORg DNA counter=>40
CCOc1cccc(/C=C(/C#N)c2nc3ccccc3[nH]2)c1OCC(=O)O | 0.4 | 5.3 | -4.2 | -5.2 | 7.8 | -6.3 | ·
C[C@@H]1CN([C@H](C)CO)C(=O)c2cccc(NS(=O)(=O)c3cccs3)c2O[C@@H]1CN(C)C(=O)Nc1ccc(C(F)(F)F)cc1 | · | 6.1 | -29.1 | -10.1 | · | · | ·
COc1cccc(Oc2cnc(N)nc2-c2ccc(OC)cc2O)c1 | -1.2 | · | · | -14.2 | -2.3 | 11.7 | ·
COc1ccc(-c2nc(N)ncc2Oc2ccccc2Br)c(O)c1 | 1.4 | · | · | -2.9 | 2.8 | 103.6* | 80.5* | RORg DNA counter=>40
Cc1cc2oc(C(=O)Nc3ccc(S(=O)(=O)Nc4ncccn4)cc3)c(C)c2cc1Cl | -1.8 | -1.3 | 0.9 | -14.0 | -8.0 | 22.2* | -3.8
CC(OC(=O)c1cc(Br)ccc1O)C(=O)NCc1ccc2c(c1)OCO2 (stereo not drawn) | -3.4 | -2.5 | 5.7 | -18.3 | 3.8 | 35.2* | 22.7*
CCCCCc1ccc(OCCCC[n+]2ccccc2)c(CCCCC)c1 | · | · | · | · | 15.5 | · | ·
CCCCCc1ccc(OCCCC[n+]2cccc(C)c2)c(CCCCC)c1 | -9.8 | -2.2 | 174.1* | · | -2.0 | 21.1* | 27.6*
CCC(C)(C)c1ccc(OCCCC[n+]2ccccc2)c(C(C)(C)CC)c1 | -6.9 | -6.6 | -21.5 | · | 23.3 | 16.4 | ·
CCCCCc1ccc(OCCCC[n+]2ccc(C)cc2)c(CCCCC)c1 | -10.0 | 22.2 | 109.4* | · | -4.4 | 21.2* | 25.2*
N#Cc1nc(-c2ccc(OCc3ccc(Cl)cc3)cc2)oc1N1CCOCC1 | 0.5 | 3.2 | -3.6 | -20.1 | -6.1 | 37.5* | -3.4
N#Cc1nc(-c2ccc(OCc3ccc(Cl)cc3)cc2)oc1N1CCC(C(N)=O)CC1 | 1.4 | -5.2 | 12.4 | -12.3 | -4.1 | -8.0 | ·
Cc1noc(C)c1S(=O)(=O)Nc1ccc2c(c1)C(=O)N([C@@H](C)CO)C[C@H](C)[C@@H](CN(C)S(=O)(=O)c1ccc(F)cc1)O2 | · | 7.4 | 4.7 | · | · | · | ·
Cc1ccc(CNc2nc3ccccc3n3nnnc23)cc1 | 2.4 | · | · | · | -3.8 | 114.6* | 70.6* | RORg DNA counter=>40
Cc1ccc(-c2nc3ccccc3n3nnnc23)cc1 | 1.5 | · | · | -16.2 | -7.5 | 4.0 | ·
O=C(Nc1ccc(S(=O)(=O)C(F)F)cc1)c1ccc2c(=O)n3c(nc2c1)CCC3 | 0.1 | -0.9 | 1.8 | · | 1.9 | 20.4* | 9.2
CCOC(=O)c1ccc(CNC(=O)CSc2nc(NC(=O)c3ccccc3)c3c(C)c(C)oc3n2)cc1 | -1.7 | · | -20.6 | 12.3 | -1.6 | 27.2* | 36.6* | RORg DNA counter=>40

For reference, some entries already given.
SMILES | SMARCA2 activ | ERp5 inh | INS-1E GSIS act | UUG fidelity | PDI turbidity | Rev-erbA mod | NR1D1 mod conf | others
Cc1noc(C)c1S(=O)(=O)Nc1ccc2c(c1)C(=O)N([C@@H](C)CO)C[C@H](C)[C@@H](CN(C)S(=O)(=O)c1ccc(F)cc1)O2 | · | 7.4 | 4.7 | · | · | · | ·
Cc1ccc(CNc2nc3ccccc3n3nnnc23)cc1 | 2.4 | · | · | · | -3.8 | 114.6* | 70.6* | RORg DNA counter=>40
Cc1ccc(-c2nc3ccccc3n3nnnc23)cc1 | 1.5 | · | · | -16.2 | -7.5 | 4.0 | ·
O=C(Nc1ccc(S(=O)(=O)C(F)F)cc1)c1ccc2c(=O)n3c(nc2c1)CCC3 | 0.1 | -0.9 | 1.8 | · | 1.9 | 20.4* | 9.2
CCOC(=O)c1ccc(CNC(=O)CSc2nc(NC(=O)c3ccccc3)c3c(C)c(C)oc3n2)cc1 | -1.7 | · | -20.6 | 12.3 | -1.6 | 27.2* | 36.6* | RORg DNA counter=>40

(further entries)
SMILES | SMARCA2 activ | ERp5 inh | INS-1E GSIS act | UUG fidelity | PDI turbidity | Rev-erbA mod | NR1D1 mod conf | others
CCOC(=O)c1ccc(CNC(=O)CSc2nnc(-c3ccncc3)o2)cc1 | -3.8 | 5.2 | 22.3 | 4.7 | -7.6 | -3.7 | ·
C[C@H]1CN(C)C(=O)c2ccccc2O[C@H]1CN(C)S(C)(=O)=O | · | · | 8.5 | · | · | · | ·
O=C(C[C@@H]1C[C@H]2c3cc(NC(=O)c4cccnc4)ccc3O[C@H]2[C@@H](CO)O1)NCc1cccnc1 | · | 6.8 | 11.6 | -20.6 | · | · | ·
COc1ccc(-c2nc3c4ccccc4ccn3c2C=O)cc1 | -3.0 | 0.2 | 0.8 | · | -0.1 | 53.4* | 93.1* | RORg DNA counter=>40
COc1ccc(Cc2c(-c3ccccc3)nc3c4ccccc4ccn23)c(C)c1 | -1.1 | 3.8 | -6.2 | -0.2 | · | 0.8 | ·
COCC#Cc1ccc2c(c1)O[C@@H](CN(C)Cc1ccccc1)[C@H](C)CN([C@H](C)CO)S2(=O)=O | · | 0.8 | -32.9 | 8.3 | · | · | ·
CC(C)Cn1c(N)c(C(=O)CSc2ncnc3sc4c(c23)CCCC4)c(=O)n(C)c1=O | -0.1 | 3.6 | -1.5 | · | -2.1 | 65.1* | 14.2
CC(=O)CSc1ncnc2sc3c(c12)CCCC3 | 2.7 | -2.2 | 14.1 | · | -0.5 | -4.5 | ·
Cc1ccc(Sc2cnc3ccccc3n2)cc1 | 3.6 | · | · | -27.8 | 3.6 | 39.5* | 32.9* | RORg DNA counter=>40
CC(Sc1cnc2ccccc2n1)C(=O)O (stereo not drawn) | -1.8 | · | · | -8.5 | 2.9 | 8.4 | ·
CS(=O)(=O)/C(C#N)=C/c1cccn1S(=O)(=O)c1ccccc1 | 0.2 | 1.1 | -14.3 | -6.0 | 12.5 | -0.5 | ·
CC(C)(C)S(=O)(=O)/C(C#N)=C/c1cccn1S(=O)(=O)c1ccccc1 | -2.9 | 0.5 | · | -17.5 | -2.2 | 16.6* | 10.7*
COc1cc2sc3ccc(-c4ccc5[nH]ccc5c4)cc3c(=O)c2cc1OC | 5.4 | · | 6.7 | -8.2 | 3.5 | 0.5 | ·
COc1cc2sc3ccc(C#Cc4ccccn4)cc3c(=O)c2cc1OC | 2.2 | -4.8 | 0.8 | -8.8 | -0.9 | 26.5* | 27.1*
Cc1c(C(=O)Nc2ccc(Cl)cc2)c2ccccn2c1C(=O)c1ccccc1 | -2.6 | · | · | -19.3 | -2.1 | 43.3* | 18.1*
Cc1nn(-c2ccccc2)c2nc(N)c(C#N)c(-c3ccc(F)cc3)c12 | -1.8 | · | · | -9.5 | -6.9 | 5.2 | ·
Cc1ccc(-n2nc(C)c3c(-c4cccs4)c(C#N)c(N)nc32)cc1 | -1.9 | · | · | · | -1.2 | 60.1* | 30.3*
O=C(C[C@@H]1CC[C@H](NC(=O)c2ccncc2)[C@H](CO)O1)NCC1CC1 | · | 2.1 | 11.2 | 2.6 | · | · | ·
CC(C)C#Cc1ccc2c(c1)O[C@H](CN(C)C(=O)c1ccccn1)[C@@H](C)CN([C@@H](C)CO)S2(=O)=O | · | -5.5 | 4.6 | 41.4 | · | · | ·
CCCCN(C(=O)CSc1nn(-c2ccc(F)cc2)c(=S)s1)c1c(N)n(CCCC)c(=O)[nH]c1=O | -2.3 | 1.8 | -23.3 | · | -18.3 | -5.3 | ·
Cn1c(N)c(C(=O)CSc2nn(-c3ccc(F)cc3)c(=S)s2)c(=O)n(C)c1=O | -3.4 | 0.2 | 8.6 | -2.6 | -5.7 | 42.0* | 42.4* | RORg DNA counter=>40
COCC#Cc1cnc2c(c1)C(=O)N([C@H](C)CO)C[C@@H](C)[C@H](CN(C)C(=O)c1ccc(F)cc1)O2 | · | -0.5 | 20.1 | -3.4 | · | · | ·
CC1(C)Cc2c(sc3c2c(N)nc(=S)n3Cc2ccccc2)CO1 | 5.7 | 3.4 | -9.8 | · | · | 110.5* | 35.8* | RORg DNA counter=>40
COc1ccc(S(=O)(=O)N(C)C[C@@H]2Oc3ccc(NC(=O)Cc4ccccc4)cc3C(=O)N([C@H](C)CO)C[C@H]2C)cc1 | · | -1.2 | -15.2 | 4.7 | · | · | ·
O=C(CCn1nnc2ccccc21)Nc1nnc(-c2ccccc2F)s1 | -0.4 | · | · | -17.7 | -7.2 | 28.2* | 16.8
